Reference: patent EP4847017A1, “FORMULATION COMPRISING N,N-DIMETHYLBIGUANIDE, PHARMACEUTICAL COMBINATION COMPRISING N,N-DIMETHYLBIGUANIDE AND DRUG, COMPOSITION, KIT, USE THEREOF, AND METHOD FOR PREPARING SAME” (dated 2026)

How the values were obtained:
[1] = test system: 70% mouse hepatocellular carcinoma cells H22 and 30% mouse fibroblast cells (3T3); test: Hepatocellular carcinoma containing an unfavorable microenvironment; conditions: day 15
[2] = test system: mouse hepatoma cells (H22); test: Hepatoma after discontinuation of 5-Fu (R or R' coadministered with B = 5-Fu); conditions: 15th day; after 0.2% 5-Fu i.p. for 4 days; once a day for 4 consecutive days; group T intraperitoneal; group C also 1.3% R' intraperitoneally
[3] = test system: human colorectal cancer cell Fu-resistant strain sw620/Fu; test: 5-Fu-resistant colorectal cancer transplanted tumor, R with 5-Fu
[4] = test system: human liver cancer drug-resistant cells Bel-7409/5-Fu; test: Drug-resistant liver cancer subcutaneous transplantation tumor, tumor weight and inhibition; conditions: 15th day; once a day for 3 consecutive days, intratumoral; groups C (0.5% R) and G ([…] R) also got 1.3% R' intraperitoneally
[5] = test system: human liver cancer drug-resistant cells Bel-7409/5-Fu; test: Pathological analysis (HE staining) of drug-resistant liver cancer tumors 1 hour after intratumoral injection
[6] = test system: human pancreatic cancer cell line ASPC-1/GEM with gemcitabine resistance; test: GEM-resistant pancreatic cancer transplanted tumor, R with GEM and DDP
[7] = test system: leg muscle tissue; test: Local stimulation scoring after injection into leg muscle (Example 10.1, Series I); conditions: 24 hours after one injection into right hind leg muscle; local stimulation scoring 0-4 points, mean score
[8] = test system: 4T1 breast cancer cells; test: Breast cancer transplanted tumor, R with methylene blue (Example 11.1); conditions: day when RTV exceeded 150%; intratumoral on the 1st and 3rd day; solution II given 20 minutes before solution I
[9] = test system: human breast cancer cell line MCF-7/DOX; test: DOX-resistant breast cancer transplanted tumor, R with DOX
[10] = test system: tyrosine kinase inhibitors (TKIs) resistant lung cancer; test: PDX of osimertinib-resistant lung cancer, R with IFO
[11] = test system: human pancreatic cancer cell line PANC-1; test: IFO-insensitive pancreatic cancer transplanted tumor, R with IFO
[12] = test system: paclitaxel-resistant human ovarian cancer cell strain SKOV3/TAX; test: TAX-resistant ovarian cancer transplanted tumor, R with TAX and 5-Fu
[13] = test system: drug-resistant gastric cancer cells MKN45/DDP; test: Drug-resistant gastric cancer transplanted tumor; conditions: day 15; once a day for 3 consecutive days
[14] = test system: 1:1 mixture of mouse liver cancer cells (mouse liver tumor H22 cell lines) and mouse fibroblast; test: DDP-insensitive liver cancer with desensitized microenvironment, R with DDP
[15] = test system: human lung cancer resistant to tyrosine kinase inhibitors (TKIs); test: PDX of TKI-resistant lung cancer, R with osimertinib (AZD9291)
[16] = test system: gefitinib resistant human lung adenocarcinoma cell line PC-9/GR; test: GR-resistant lung adenocarcinoma transplanted tumor, R with GR
[17] = number of doses 1, intratumoral (group M 5-Fu intraperitoneal)

sodium hydroxide
Tumor weight (g, mean ±SEM) [1, 17]: 1.31 ± 0.53 g | Tumor weight (g, mean ±SEM) ([1]; number of doses 6, once a day for 6 consecutive days, intratumoral): 0.34 ± 0.27 g

NCCCC[C@H](N)C(=O)O
Tumor weight (g, mean ±SEM) [1, 17]: 1.97 ± 0.37 g

O=c1[nH]cc(F)c(=O)[nH]1
Tumor weight (g, mean ±SEM) [2]: 1.84 ± 0.29 g | Progression-free time ([3]; day when RTV exceeded 150%): 3 days | Effective time ([3]; day when T/C% less than 42%, solution I intratumoral, solution II intraperitoneal, regimen per group b765): > 15 days | t2 pharmacological effect: Tumor weight (g, mean ±SEM) [4]: 0.75±0.11 g | Tumor weight (g, mean ±SEM) [1, 17]: 2.16 ± 0.31 g | morphology of cells in the tumor (pathological analysis of the tumor samples) ([5]; after administration for 1 hour): normal | t1 pharmacological effects (results of pathological analysis) ([5]; one hour after one intratumoral injection, 500 µL per mouse, HE staining, four-level grading for lesions): -

Nc1ccn([C@@H]2O[C@H](CO)[C@@H](O)C2(F)F)c(=O)n1
Progression-free time ([6]; day when RTV > 150%): 3 days | Effective time ([6]; day when T/C% < 42%, solution I intratumoral, solution II intraperitoneal, regimen per group b771): > 15 days

CC(=O)O
Tissue destruction score (M) [7]: 0.5 points

N=C(N)NCCC[C@H](N)C(=O)O
Progression-free time [8]: 9 days

COc1cccc2c1C(=O)c1c(O)c3c(c(O)c1C2=O)C[C@@](O)(C(=O)CO)C[C@@H]3O[C@H]1C[C@H](N)[C@H](O)[C@H](C)O1
Progression-free time ([9]; day when RTV more than 150%, observation to day 15): 3 days | Effective time ([9]; day when T/C % less than 42%, solution I intratumoral, solution II intraperitoneal, regimen per group b750): > 15 days

O=P1(NCCCl)OCCCN1CCCl (centres unmarked)
Tumor weight (g, average + / - SEM) ([10]; day 9): 0.83 ± 0.46 g | Progression-free time ([10]; day when RTV > 150%, observation to day 9): 7 days | Effective time ([10]; day when T/C % < 42%, intratumoral once a day, 3 times, 100 µL): 6 days | Progression-free time ([11]; day when RTV > 150%, observation to day 15): 3 days | Effective time ([11]; day when T/C % < 42%, solution I intratumoral, solution II intraperitoneal, regimen per group b736): > 15 days

CC(=O)O[C@H]1C(=O)[C@@]2(C)[C@H]([C@H](OC(=O)c3ccccc3)[C@]3(O)C[C@H](OC(=O)[C@H](O)[C@@H](NC(=O)c4ccccc4)c4ccccc4)C(C)=C1C3(C)C)[C@]1(OC(C)=O)CO[C@@H]1C[C@@H]2O
Progression-free time ([12]; day when RTV > 150%): 3 days | Effective time ([12]; day when T/C% < 42%, solution I intratumoral, solution II intraperitoneal, regimen per group b779): > 15 days

cisplatin
Tumor weight (g, mean ±SEM) [13]: 0.86 ± 0.18 g | Progression-free time ([14]; day when RTV more than 150%): 3 days | Effective time ([14]; day when T/C % less than 42%, solution I intratumoral, solution II intraperitoneal, regimen per group b757): > 15 days

CCO
Tissue destruction score (M) [7]: 3.6 points

monosodium phosphate
Tissue destruction score (M) [7]: 0.7 points

C=CC(=O)Nc1cc(Nc2nccc(-c3cn(C)c4ccccc34)n2)c(OC)cc1N(C)CCN(C)C
Progression-free time ([15]; day when RTV >150%, observation to day 7): 0 days | Effective time ([15]; day when T/C% <42%, solution I intratumoral day 1, 2, 3 (100µL), solution II intragastric once a day): > 7 days

COc1cc2ncnc(Nc3ccc(F)c(Cl)c3)c2cc1OCCCN1CCOCC1
Progression-free time ([16]; day when RTV > 150%): 3 days | Effective time ([16]; day when T/C% <42%, solution I intratumoral, II intraperitoneal, III intragastric, regimen per group b794): > 15 days

O=C(O)O
Tissue destruction score (M) [7]: 0.6 points

sodium chloride
Tissue destruction score (M) [7]: 0.3 points

CN(C)c1ccc2nc3ccc(=[N+](C)C)cc-3sc2c1
Progression-free time [8]: 9 days
